Biological target: Transient receptor potential cation channel subfamily V member 1 (Rattus norvegicus, UniProt O35433)
Experiment: Competition Binding Assay and Inhibition of Ca2+ Uptake Assay
Settings: pH 7.4; 37 °C
Experimental: Binding assay mixtures were set up and contained [3H] RTX, various concentrations of competing ligands, and rVR1-transfected CHO cells. Nonspecific binding was determined in the presence of 100 nM nonradioactive RTX. After the binding reaction, membrane-bound RTX was separated from the free by centrifugation, and the radioactivity was determined by scintillation counting. Equilibrium binding parameters (Ki, Bmax, and cooperativity) were determined by fitting the Hill equation to the measured values with the aid of the program Origin 6.0.

Chains of the proteins cited; added tags and fusions are not shown.
UniProt O35433, whole entry: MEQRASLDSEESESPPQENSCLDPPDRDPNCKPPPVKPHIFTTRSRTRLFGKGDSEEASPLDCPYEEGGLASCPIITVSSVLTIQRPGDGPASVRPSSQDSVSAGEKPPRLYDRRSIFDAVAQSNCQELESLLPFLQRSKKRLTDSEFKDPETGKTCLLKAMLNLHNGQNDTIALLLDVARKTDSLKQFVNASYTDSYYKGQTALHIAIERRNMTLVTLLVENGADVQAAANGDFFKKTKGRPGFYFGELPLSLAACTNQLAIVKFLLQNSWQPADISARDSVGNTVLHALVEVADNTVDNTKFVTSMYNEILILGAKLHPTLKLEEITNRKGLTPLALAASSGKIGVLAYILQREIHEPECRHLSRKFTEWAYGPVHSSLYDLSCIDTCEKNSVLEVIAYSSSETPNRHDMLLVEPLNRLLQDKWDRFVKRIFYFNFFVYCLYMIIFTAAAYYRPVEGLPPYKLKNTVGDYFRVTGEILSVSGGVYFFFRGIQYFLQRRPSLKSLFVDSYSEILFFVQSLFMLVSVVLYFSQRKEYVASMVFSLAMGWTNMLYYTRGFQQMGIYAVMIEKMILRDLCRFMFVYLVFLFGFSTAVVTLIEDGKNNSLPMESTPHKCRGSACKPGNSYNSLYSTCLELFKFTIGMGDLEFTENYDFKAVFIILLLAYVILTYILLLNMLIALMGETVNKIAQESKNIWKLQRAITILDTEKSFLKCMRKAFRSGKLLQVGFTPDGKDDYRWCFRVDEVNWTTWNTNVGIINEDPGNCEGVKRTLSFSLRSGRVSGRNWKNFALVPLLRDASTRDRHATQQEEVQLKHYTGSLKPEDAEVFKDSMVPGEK

CC(C)(C)c1ccc(CNC(=S)NCc2ccc(NS(C)(=O)=O)cc2)cc1 [3-[(4-tert-butylphenyl)methyl]-1-[(4-methanesulfonamidophenyl)methyl]thiourea] gave a Ki of 54 nM.
